# Measured values from US11738082B2, “High concentration protein formulations with reduced viscosity” (Bhami's Research Laboratory, Pvt. Ltd., priority 2017, dated 2023).
# System: Human Gamma Globulin (HGG), GLOBUCEL®
# Assay: Viscosity of aqueous solutions of Human Gamma Globulin (Cambridge VISCOlab5000 or DV2T cone and plate viscometer)
# Details: excipient 5.84 mg/mL (100 mM), 25 mM histidine buffer pH 6.0
smiles,measurement,setting,value
[Cl-].[Na+] [Sodium Chloride],Viscosity (cP) @ 25° C.,HGG 227 mg/mL,48 cP
same,Viscosity (cP) @ 25° C.,HGG 249 mg/mL,115 cP
